The text below walks through data of patent US7169782B2, “Aryl substituted thiazolidinones and the use thereof” (Euro-Celtique S.A., priority 2001, dated 2007).

Amino acid sequences for entries named in this document (tags omitted). Residues count along the entry.
UniProt P04775, whole entry: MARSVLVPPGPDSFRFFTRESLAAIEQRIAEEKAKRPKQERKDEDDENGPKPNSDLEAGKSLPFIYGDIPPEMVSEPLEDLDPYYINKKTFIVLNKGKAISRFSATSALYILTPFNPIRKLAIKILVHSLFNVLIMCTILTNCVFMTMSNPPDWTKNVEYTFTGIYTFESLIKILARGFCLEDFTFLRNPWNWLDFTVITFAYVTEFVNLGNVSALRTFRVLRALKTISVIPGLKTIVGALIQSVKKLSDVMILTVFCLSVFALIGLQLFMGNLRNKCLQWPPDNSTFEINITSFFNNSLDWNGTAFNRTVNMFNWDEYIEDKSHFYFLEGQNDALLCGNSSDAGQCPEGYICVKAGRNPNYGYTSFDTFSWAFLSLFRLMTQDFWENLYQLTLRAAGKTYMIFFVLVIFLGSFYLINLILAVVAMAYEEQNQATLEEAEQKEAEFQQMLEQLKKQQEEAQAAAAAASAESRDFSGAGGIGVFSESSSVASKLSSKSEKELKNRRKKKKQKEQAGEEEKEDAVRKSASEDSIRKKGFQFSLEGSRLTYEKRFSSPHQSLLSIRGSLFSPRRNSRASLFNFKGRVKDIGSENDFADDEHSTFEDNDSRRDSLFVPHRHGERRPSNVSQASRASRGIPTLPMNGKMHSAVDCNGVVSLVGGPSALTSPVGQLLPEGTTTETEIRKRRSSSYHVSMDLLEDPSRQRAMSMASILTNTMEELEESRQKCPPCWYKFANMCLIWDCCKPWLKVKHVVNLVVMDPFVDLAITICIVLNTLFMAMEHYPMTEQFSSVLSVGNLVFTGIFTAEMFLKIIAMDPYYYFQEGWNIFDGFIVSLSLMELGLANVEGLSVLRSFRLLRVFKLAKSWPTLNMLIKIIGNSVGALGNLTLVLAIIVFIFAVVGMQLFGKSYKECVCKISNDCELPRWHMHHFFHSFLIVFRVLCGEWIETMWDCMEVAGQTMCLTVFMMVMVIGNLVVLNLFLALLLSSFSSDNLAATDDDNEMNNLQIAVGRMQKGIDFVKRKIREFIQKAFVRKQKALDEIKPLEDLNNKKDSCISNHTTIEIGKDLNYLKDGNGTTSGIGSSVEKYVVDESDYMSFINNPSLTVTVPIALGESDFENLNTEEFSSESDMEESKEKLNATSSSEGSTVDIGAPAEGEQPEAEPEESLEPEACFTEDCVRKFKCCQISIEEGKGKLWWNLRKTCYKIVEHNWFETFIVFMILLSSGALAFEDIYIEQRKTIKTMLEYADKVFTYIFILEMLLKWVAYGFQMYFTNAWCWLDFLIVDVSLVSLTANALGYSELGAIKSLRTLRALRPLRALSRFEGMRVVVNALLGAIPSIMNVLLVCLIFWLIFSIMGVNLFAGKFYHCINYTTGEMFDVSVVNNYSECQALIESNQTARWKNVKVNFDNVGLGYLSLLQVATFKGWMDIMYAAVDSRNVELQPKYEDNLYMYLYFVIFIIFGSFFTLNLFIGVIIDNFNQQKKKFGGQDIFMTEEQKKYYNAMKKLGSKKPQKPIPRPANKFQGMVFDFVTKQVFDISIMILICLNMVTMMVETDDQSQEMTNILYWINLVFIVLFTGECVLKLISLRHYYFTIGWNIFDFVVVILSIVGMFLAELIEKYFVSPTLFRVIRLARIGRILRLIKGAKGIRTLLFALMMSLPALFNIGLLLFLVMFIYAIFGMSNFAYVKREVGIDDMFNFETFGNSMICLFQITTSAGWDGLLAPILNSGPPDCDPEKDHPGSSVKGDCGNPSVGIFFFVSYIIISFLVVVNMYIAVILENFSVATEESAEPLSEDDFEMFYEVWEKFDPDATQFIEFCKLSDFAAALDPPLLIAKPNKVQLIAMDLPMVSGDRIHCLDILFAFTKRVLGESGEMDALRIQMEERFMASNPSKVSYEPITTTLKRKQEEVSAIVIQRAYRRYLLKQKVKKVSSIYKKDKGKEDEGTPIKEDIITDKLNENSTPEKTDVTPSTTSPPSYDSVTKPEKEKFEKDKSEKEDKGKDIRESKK
UniProt Q00954, 19-218 partner limits assumed: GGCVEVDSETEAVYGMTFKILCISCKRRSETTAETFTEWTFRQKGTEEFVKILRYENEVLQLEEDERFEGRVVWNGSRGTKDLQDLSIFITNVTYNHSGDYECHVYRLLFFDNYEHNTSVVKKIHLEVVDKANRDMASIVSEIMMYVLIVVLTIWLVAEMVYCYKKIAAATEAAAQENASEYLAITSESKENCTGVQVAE

The experiment concerns the target rBIIa/beta 1 sodium channels expressed in Xenopus oocytes (Rattus norvegicus, UniProt P04775). In words: Electrophysiological assay, two-electrode voltage clamp in oocytes, inactivated-state protocol. Particulars: read-out: Ki (oocyte), apparent inhibition constant from single point inhibition data, rat brain type IIa/beta 1 Na+ channels in Xenopus oocytes. The class given is cell-based. (In general: Two-electrode voltage clamp holds a large cell at a set potential and records current.)

Regarding `CCC1SCC(=O)N1CCN1CCCCC1` (stereo not shown), the Ki was 27.3 µM.
